# Measured affinities in a library of Ab-14 heavy chain variants

Target peptide (SARS-CoV-2 spike, HR2 region): PDVDLGDISGINAS

Ab-14 is the parent antibody, in scFv form: VH, then the linker GGGGSGGGGSGGGGS, then VL. The light chain is unchanged in all variants.
VH: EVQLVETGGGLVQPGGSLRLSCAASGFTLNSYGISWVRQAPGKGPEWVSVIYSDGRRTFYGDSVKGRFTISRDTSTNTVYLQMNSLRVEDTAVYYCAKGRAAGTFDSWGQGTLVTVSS
VL: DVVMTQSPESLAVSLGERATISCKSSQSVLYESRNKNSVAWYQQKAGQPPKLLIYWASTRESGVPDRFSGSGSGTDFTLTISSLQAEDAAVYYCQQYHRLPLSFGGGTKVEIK

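Phage display of a naive human antibody library on the peptide gave the parent. These sequences belong to a second round, designed from the earlier measurements on random variants of the parent. Several design methods are mixed in this list. The scFvs were displayed on barcoded MATa yeast, the peptide on MATalpha yeast. The frequency of each diploid, read from paired DNA barcodes, reflects how well the two displayed proteins bind. Each replicate has its own calibration line, from reference interactions of the BCL2 family. There are six technical replicates.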

The parent's heavy chain CDRs are GFTLNSYGIS, VIYSDGRRTFYGDSVK, GRAAGTFDS; each variant's own CDRs replace them letter for letter.
The Kd shown is the geometric mean over detected replicates; a lower Kd is a better binder.
"no signal" marks a missing value. The strain was present, yet no cells mated with the target were sequenced in any replicate, which points to weak or no binding.
Values of this round are not directly comparable with the first-round values of the same sequences.
In the paper, a design with two or fewer of six values counts as a poor binder.
Three control strains display no target. For all heavy chain designs, 1% of the pairings with them gave a signal, with a median of 120 nM and one signal in twenty below 7.0 nM, so weak values seen in few replicates may be background.

CDR-H1,CDR-H2,CDR-H3,Kd,detected
GFDLNEYGIS,VIYADGMRTAYADDVK,GNNAGTFDM,1.3 nM,6/6
GFTCNQYLDS,VIYSDGRRTFYSDSVK,GRAAGFFDS,no signal,0/6
GFDLDEYGIS,VIYADGRRTYYADSVK,GNVAGTFDV,250 pM,6/6
GFDLNEYGIS,VIYADGRRTAYADSVK,GKAAGTFDQ,1.5 nM,6/6
GFDLNEYGIS,VIYADGRRTAYADSVK,GEIAGTFDS,650 pM,6/6
GFNLNSYGIS,VIYSDGRRTFYGDSVK,GMTAGTFDS,5.3 nM,2/6
GFELNSYGIS,VIYSDGRRTFYHDSVK,GRAAGTFSS,28 nM,1/6
GFDLNEYGIS,VIYADGRRTAYIDSVK,GTNAGTFDQ,120 nM,1/6
GFTLNSYGIS,VIYSDGRRTFYGDSVF,GRWAGTFDS,no signal,0/6
GFDLDEYGIS,VIYADGMRTYYADDVK,GNVAGTFDL,360 pM,6/6
GFDLNEYGIS,VIYADGKRTAYSDSVK,GENAGTFDT,320 pM,6/6
GFTLQSYGIS,VIYSDGRRTFYSDNVK,GRAAGTFDS,5.8 nM,3/6
GFNLDEYGIS,VIYADGMRTAYADSVK,GETAGTFDV,550 pM,6/6
GFDLNEYGIS,VIYADGMRTFYADSVK,GEQAGTFDV,210 pM,6/6
GFDLNSYGIS,VIYSDGRRTFYGDSVK,GQTAGTFDV,1.3 nM,6/6
GFDLDEYGIS,VIYADGRRTFYTDSVK,GENAGTFDV,280 pM,6/6
GFTLNSQGIS,VIYSDGRRTWYGDSVK,GRAAGLFDS,14 nM,6/6
GFDLNEYGIS,VIYADGMRTAYSDKVK,GNNAGTFDI,470 pM,6/6
GFALNSYGIS,VIYSDGRRTFYGDDVK,GRAAGRFDS,no signal,0/6
GFDLNSYGIS,VIYSDGRRTFYGDSVK,IRNAGTFDS,no signal,0/6
GFDLEEYGIS,VIYADGLRQYYKDNFK,GWNDGTIAV,110 µM,1/6
GFNLNSYGIS,VIYSDGRRTFYIDSVK,GQEAGTFDS,5.3 nM,3/6
GFTLNSYGIS,VIYSDGRRTFYDDSVK,NQLAGTFSS,no signal,0/6
GFWLNEYGIS,VIYSDGKRTFYGDSVK,GRTAGTFDS,95 nM,3/6
EFDLNNYGIS,VIYADGLRTQYETKVK,GDVAGTFDS,6.8 nM,6/6
GFDLNEYGIS,VIYADGRRTQYIDSVK,GNTAGTFDQ,770 pM,6/6
GFSLNYYGIS,VIYSDGRRTFYGDSVK,GKTAGTFDS,56 nM,6/6
GFDLNEYGIS,VIYADGRRTFYADNVK,GEAAGTFDS,550 pM,6/6
GFSLNSYGIS,VIYSDGRRTFYGDDVK,GVNAGTFDS,3.7 nM,6/6
GFTLNEYGIS,VIYSDGRRTFYGDSVK,GNAAGTFDK,2.7 nM,6/6
GFELNSYGIS,VIYSDGRRTFYTDSVK,GNAAGTFDS,1.9 nM,6/6
GFDLNEYGIS,VIYADGRRTFYTDSVK,GQNAGTFDM,6.4 nM,4/6
GFQLNDYGIS,VIYSDGRRTFYGDSVK,GRTAGTFDL,2.2 nM,6/6
GFDLNGYGIS,VIYSDGRRTFAGDSVK,GRAVGWFNS,no signal,0/6
GFSLNSYGIS,VIYSDGRRTFYVDSVK,GRQAGTFDT,26 nM,4/6
GFDLDEYGIS,VIYADGMRTVYADSVK,GETAGTFDV,150 nM,4/6
GFELDEYGIS,VIYADGKRKAYDDAVK,GFRLGVKLI,no signal,0/6
GFDLNEYGIS,VIYADGRRTFYADSVK,GQNAGTFLV,1.6 nM,1/6
GFDLNEYGIS,VIYADGMRTAYTDSVK,GENAGTFDI,470 pM,6/6
GFDLNEYGIS,VIYADGRRTFYSDSVK,GEAAGTFDF,110 pM,6/6
GFNLNEYGIS,VIYADGRRTFYADSVK,GENAGTFDS,370 pM,6/6
GFDLTEYGIS,VIYADGRRTEYSTDVK,GQTAGHFLD,no signal,0/6
GFDLNEYGIS,VIYADGRRTFYADSVK,GEIAGTFSF,330 pM,6/6
GENLNSYGIS,VIYSDGRRTFYGDSVK,GRVAGTKDS,no signal,0/6
GFTLNSYGIS,VIYSDGRRTSYADSVK,GRAQGTFRS,no signal,0/6
GFNLDEYGIS,VIYADGRRTAYSDSVK,GEVAGTFDI,230 nM,2/6
GFTLNSYGIS,VIYSDGVRTFYGDSVK,GRHAGTFDS,580 nM,2/6
GFDLNEYGIS,VIYADGRRTAYTDSVK,GNEAGTFDV,440 pM,6/6
GFDLNEYGIS,VIYADGRRTAYIDSVK,GHAAGTFDT,220 pM,6/6
GFTLNSYGIS,VIYSDGRRTFYHDSVK,GRVAGTFDT,5.0 nM,5/6
GFSLNSYGIS,VIYSDGRRTFYGDNVK,GRQAGTFDS,no signal,0/6

The 5 strongest on average among those seen in every replicate, once more:

CDR-H1,CDR-H2,CDR-H3,Kd,detected
GFDLNEYGIS,VIYADGRRTFYSDSVK,GEAAGTFDF,110 pM,6/6
GFDLNEYGIS,VIYADGMRTFYADSVK,GEQAGTFDV,210 pM,6/6
GFDLNEYGIS,VIYADGRRTAYIDSVK,GHAAGTFDT,220 pM,6/6
GFDLDEYGIS,VIYADGRRTYYADSVK,GNVAGTFDV,250 pM,6/6
GFDLDEYGIS,VIYADGRRTFYTDSVK,GENAGTFDV,280 pM,6/6

Source: Li et al. 2023 (doi:10.1038/s41467-023-39022-2), MIT Lincoln Laboratory and A-Alpha Bio; data file from the FLAb repository.